Data: BindingDB's records for doi:10.1016/S1074-5521(00)00134-4 (Novartis Pharmaceuticals, 2000)

Amino acid sequences for entries named in this document (tags omitted). A change or cut given only in a name is not applied to a line headed by its entry.
UniProt P00797: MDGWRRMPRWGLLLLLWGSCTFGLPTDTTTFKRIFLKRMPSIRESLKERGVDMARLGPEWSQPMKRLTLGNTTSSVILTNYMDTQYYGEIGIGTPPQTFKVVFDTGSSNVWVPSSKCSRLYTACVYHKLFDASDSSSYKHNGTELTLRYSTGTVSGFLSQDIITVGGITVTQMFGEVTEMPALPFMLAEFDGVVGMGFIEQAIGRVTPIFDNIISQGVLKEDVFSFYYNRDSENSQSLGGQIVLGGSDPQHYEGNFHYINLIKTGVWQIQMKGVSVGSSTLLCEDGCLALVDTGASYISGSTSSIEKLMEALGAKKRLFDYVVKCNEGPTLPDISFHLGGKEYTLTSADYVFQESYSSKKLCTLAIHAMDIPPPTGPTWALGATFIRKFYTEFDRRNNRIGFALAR

Molecular target: Renin (Homo sapiens, UniProt P00797)
Conditions: pH 7.2; 37 °C

CCCCNC(=O)[C@H](C)CC(O)[C@@H](N)C[C@H](C)COC(=O)c1cn(Cc2ccccc2)c2ccccc12 (stereo partly drawn) [(2S,4S,7R)-4-amino-7-(butylcarbamoyl)-5-hydroxy-2,7-dimethylheptyl 1-benzyl-1H-indole-3-carboxylate]
IC50: 3 nM
